Measured values taken from patent US9339541B2, “Thiophosphate nucleosides for the treatment of HCV” (priority 2013, dated 2016).

Assay: Cytotoxicity evaluation, CellTiter-Blue Cell Viability Assay
Type: cell-based
Settings: human, Zluc cells (HCV replicon cells)
Method: The plates were then incubated at 37° C./5% CO2 for at least 3 hours.

| Structure (SMILES) | CC50 at 72 h |
| --- | --- |
| CCOC(=O)[C@H](C)NP(=O)(OC[C@H]1O[C@@H](n2cnc3c(OCC)nc(N)nc32)[C@](C)(O)[C@@H]1O)SCC (stereo partly drawn) [Compound 10b] | > 50 µM |
| CCOC(=O)[C@H](C)NP(=O)(OC[C@H]1O[C@@H](n2cnc3c(=O)[nH]c(N)nc32)[C@](C)(O)[C@@H]1O)SCC (stereo partly drawn) [Compound 13b] | > 50 µM |
| CC(C)OC(=O)[C@H](C)NP(=O)(OC[C@H]1O[C@@H](n2ccc(=O)[nH]c2=O)[C@](C)(Cl)[C@@H]1O)SC1CCCC1 (single isomer, unassigned) [8b Diastereomer 1] | > 50 µM |
| CC(C)OC(=O)[C@@H](C)NP(=O)(OC[C@H]1O[C@@H](n2ccc(=O)[nH]c2=O)[C@](C)(Cl)[C@@H]1O)SC1CCCC1 (single isomer, unassigned) [8a Diastereomer 1] | > 50 µM |
| CCOc1nc(N)nc2c1ncn2[C@@H]1O[C@H](COP(=O)(N[C@@H](C)C(=O)OC(C)C)SCC2NC(=O)NC2=O)[C@@H](O)[C@@]1(C)F (single isomer, unassigned) [3b Diastereomer 1] | > 50 µM |
| CCOC(=O)CCSP(=O)(N[C@@H](C)C(=O)OC(C)C)OC[C@H]1O[C@@H](n2ccc(=O)[nH]c2=O)[C@](C)(O)[C@@H]1O (stereo partly drawn) [Compound 15b] | > 50 µM |
| COC(=O)CSP(=O)(N[C@@H](C)C(=O)OC(C)C)OC[C@H]1O[C@@H](n2ccc(=O)[nH]c2=O)[C@](C)(Cl)[C@@H]1O (stereo partly drawn) [Compound 17b] | > 50 µM |
| COC(=O)N[C@@H](CSP(=O)(N[C@@H](C)C(=O)OC(C)C)OC[C@H]1O[C@@H](n2cnc3c(OC)nc(N)nc32)[C@](C)(O)[C@@H]1O)C(=O)OC(C)C (stereo partly drawn) [Compound 2by] | > 50 µM |
| CC(C)OC(=O)[C@H](C)NP(=O)(OC[C@H]1O[C@@H](n2ccc(=O)[nH]c2=O)[C@](C)(O)[C@@H]1O)SCC1NC(=O)NC1=O (single isomer, unassigned) [4b Diastereomer 1] | > 50 µM |
